Measured values from PMC7723054.
This is one part of the list.

T1: LIN28A (human?, UniProt Q9H9Z2 1-209)
T1 sequence: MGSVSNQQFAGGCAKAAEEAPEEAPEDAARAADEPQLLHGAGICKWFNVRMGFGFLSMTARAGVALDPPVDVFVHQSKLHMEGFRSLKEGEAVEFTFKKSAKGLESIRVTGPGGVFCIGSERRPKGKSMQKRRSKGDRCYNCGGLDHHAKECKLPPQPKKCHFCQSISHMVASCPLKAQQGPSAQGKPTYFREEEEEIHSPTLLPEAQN

T2: CIRBP (Homo sapiens, UniProt Q14011 1-172)
T2 sequence: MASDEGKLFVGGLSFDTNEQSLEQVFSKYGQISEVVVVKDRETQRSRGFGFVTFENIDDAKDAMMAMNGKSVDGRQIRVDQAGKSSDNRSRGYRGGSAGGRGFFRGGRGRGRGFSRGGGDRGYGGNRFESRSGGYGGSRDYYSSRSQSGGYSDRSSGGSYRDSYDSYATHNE

T3: DHX36 (Homo sapiens, UniProt Q9H2U1 1-1008)
T3 sequence: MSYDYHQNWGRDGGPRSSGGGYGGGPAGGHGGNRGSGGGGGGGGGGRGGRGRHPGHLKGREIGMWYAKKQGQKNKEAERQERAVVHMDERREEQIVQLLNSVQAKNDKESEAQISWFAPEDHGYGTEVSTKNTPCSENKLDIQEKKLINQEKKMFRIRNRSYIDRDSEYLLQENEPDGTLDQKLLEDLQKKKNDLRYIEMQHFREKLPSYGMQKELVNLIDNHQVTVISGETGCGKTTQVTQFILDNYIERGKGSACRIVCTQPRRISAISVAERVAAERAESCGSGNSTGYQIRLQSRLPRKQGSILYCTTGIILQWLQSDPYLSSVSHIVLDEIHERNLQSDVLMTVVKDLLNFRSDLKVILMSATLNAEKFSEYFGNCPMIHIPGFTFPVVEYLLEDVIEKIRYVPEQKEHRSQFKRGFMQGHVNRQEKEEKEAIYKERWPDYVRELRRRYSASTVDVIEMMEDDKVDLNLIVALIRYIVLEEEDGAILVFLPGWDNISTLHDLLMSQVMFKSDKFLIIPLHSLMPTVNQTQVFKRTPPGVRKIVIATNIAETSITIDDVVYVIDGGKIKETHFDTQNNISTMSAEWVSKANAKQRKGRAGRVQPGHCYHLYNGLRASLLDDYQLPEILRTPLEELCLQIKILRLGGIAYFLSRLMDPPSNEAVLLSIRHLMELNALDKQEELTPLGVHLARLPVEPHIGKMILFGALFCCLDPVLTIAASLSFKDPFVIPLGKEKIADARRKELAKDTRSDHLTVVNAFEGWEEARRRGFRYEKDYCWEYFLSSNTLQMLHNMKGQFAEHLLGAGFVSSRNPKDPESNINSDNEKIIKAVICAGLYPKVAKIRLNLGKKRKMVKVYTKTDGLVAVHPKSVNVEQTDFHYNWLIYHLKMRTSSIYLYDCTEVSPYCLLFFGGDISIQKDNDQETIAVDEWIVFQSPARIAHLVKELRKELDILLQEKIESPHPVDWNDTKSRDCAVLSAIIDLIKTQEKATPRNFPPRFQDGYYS

B1: hsa-mir-3128 (structured_RNA)
RNA: GGGAAACCGAUAUCAGGCAUGACAUCUGGGUGUACGAAGUUUCAGCUCAUUUUCCUUAAAAAAUGAGCUGAAGCUUCGUGCAC
B2: hsa-mir-3688-1 (structured_RNA)
RNA: GGGAAGCCUGACUAGAAGCUCUUCGAUCGGUGUACGAAGUUUCAGCCAUAUGUAUGUAUGUAUGUCUGUUACACAUAUGGCUGAAGCUUCGUGCAC
B3: hsa-mir-6761 (structured_RNA)
RNA: GGGAACCAUCGAUCUCGGAAAACGUUGAGGUGUACGAAGUUUCAGCGGCAGGUGCCUCCGUGUUGCCGAACCCUCCUGCUGAAGCUUCGUGCAC
B4: hsa-mir-6728 (structured_RNA)
RNA: GGGAUGGCUUCUAAUGAGGACACCACAAGGUGUACGAAGUUUCAGCGAGGGGCUUACUGCCCUGUGGGGCUCUCUGGACCCAGUGCCAUGCUUCUCGCUGAAGCUUCGUGCAC
B5: hsa-mir-92b (structured_RNA)
RNA: GGGACCAUGCGUGACGGGUCAAAUAAACGGUGUACGAAGUUUCAGCAGUGUUGUUUUUUCCCCCGCCAAUAUUGCUGAAGCUUCGUGCAC
B6: hsa-mir-1234 (structured_RNA)
RNA: GGGACAAGCCAUGAGGAUGUACCAGAUUGGUGUACGAAGUUUCAGCCGGGGGGGGCCCGGGGACGGCUUGGGCCUGCCUAGUCGGGCUGAAGCUUCGUGCAC
B7: hsa-mir-554 (structured_RNA)
RNA: GGGAAAAGAGUCCGCUUUCCCCGUUGUAGGUGUACGAAGUUUCAGCCAGUACUGGUCUUAGACUGGCUGAAGCUUCGUGCAC
B8: hsa-mir-450a-2 (structured_RNA)
RNA: GGGAUACGAAACACCCGGACCUGAUAGAGGUGUACGAAGUUUCAGCUAAUAUGUAAUAUAAAUGUAUUGGCUGAAGCUUCGUGCAC
B9: hsa-mir-4317 (structured_RNA)
RNA: GGGAAGUACUAAGCUCAUCGCUGUGAACGGUGUACGAAGUUUCAGCGUUUAUUUUGUAGCGCUGAAGCUUCGUGCAC
B10: hsa-mir-6507 (structured_RNA)
RNA: GGGACGCACAUAGCAACGGUCCACGAAAGGUGUACGAAGUUUCAGCUUUGUAUUGUGGUUCAGUACCAUGCAAAGCUGAAGCUUCGUGCAC
B11: hsa-mir-107 (structured_RNA)
RNA: GGGAGAUUCGAUGCAAACUGCACGAGCCGGUGUACGAAGUUUCAGCGCCUUGUGGCAUGGAGUUCAAGCGCUGAAGCUUCGUGCAC
B12: hsa-mir-3973 (structured_RNA)
RNA: GGGAUGUCGAAGUGAUCGACCGCUCCUUGGUGUACGAAGUUUCAGCUUGUUACAUUUUAGGAUUGCUUGCCCCUUGCUCCAAUGGUGCAGGCAGAAGAAAUGCAAACAAGCUGAAGCUUCGUGCAC
B13: hsa-mir-4779 (structured_RNA)
RNA: GGGAAAGUCACACGCUCGCAGCUACGUUGGUGUACGAAGUUUCAGCCCUAGAGUCCAUUCUUUACUCUAGGGCUGAAGCUUCGUGCAC

target: T1, LIN28A; assay: FOREST: bead pull-down of RNA structure library v1, barcode microarray; U1A/LIN28A: 20 mM HEPES pH 7.5, 80 mM KCl, 20 mM NaCl, 10% glycerol, 2 mM DTT, 0.1 ug/uL BSA, 4 C; BG4/CIRBP/DHX36: 10 mM Tris-HCl pH 7.5, 100 mM KCl (or LiCl),; high values mean tight binding

First: B1
Second: B2
The binding signal of the first is higher: 0.23 z-score for the first, 0.229 z-score for the second.

B3 and B4 are the same in binding signal: 0.228 z-score for the first, 0.228 z-score for the second.

Compared with B5, B6 is lower in binding signal: 0.227 z-score for the first, 0.226 z-score for the second.

B7 and B8 are the same in binding signal: 0.225 z-score for the first, 0.225 z-score for the second.

Going from B9 to B10, the binding signal falls from 0.222 z-score to 0.221 z-score.

First: B11
Second: B12
The binding signal of the first is higher: 0.22 z-score for the first, 0.214 z-score for the second.

B13 showed a binding signal of 0.212 z-score.

target: T2, CIRBP; assay: as above

Compared with B1, B2 is lower in binding signal: 0.0592 z-score for the first, -0.155 z-score for the second.

Going from B3 to B4, the binding signal falls from 0.224 z-score to -1.02 z-score.

First: B5
Second: B6
The binding signal of the first is lower: 0.53 z-score for the first, 0.706 z-score for the second.

First: B7
Second: B8
The binding signal of the first is higher: -0.598 z-score for the first, -0.69 z-score for the second.

Compared with B9, B10 is lower in binding signal: 0.741 z-score for the first, -0.153 z-score for the second.

Going from B11 to B12, the binding signal falls from -0.00137 z-score to -0.262 z-score.

Work on B13 yielded a binding signal of -1.16 z-score.

target: T3, DHX36; assay: as above

First: B1
Second: B2
The binding signal of the first is lower: -1.17 z-score for the first, -0.799 z-score for the second.

Going from B3 to B4, the binding signal rises from -0.506 z-score to 0.949 z-score.

Compared with B5, B6 is higher in binding signal: -0.0495 z-score for the first, 0.508 z-score for the second.

Going from B7 to B8, the binding signal falls from -0.304 z-score to -0.747 z-score.

Going from B9 to B10, the binding signal falls from -0.207 z-score to -0.741 z-score.

Going from B11 to B12, the binding signal rises from -0.493 z-score to 0.655 z-score.

B13 was tested, and the binding signal was 0.0924 z-score.
